# Results as given in US20240261333A1 (published 2024).
# B1: N-terminal FLAG tagged B3GNT2 (enzyme, human, UniProt Q9NY97 1-397, looked up)
# chain: MSVGRRRIKLLGILMMANVFIYFIMEVSKSSSQEKNGKGEVIIPKEKFWKISTPPEAYWNREQEKLNRQYNPILSMLTNQTGEAGRLSNISHLNYCEPDLRVTSVVTGFNNLPDRFKDFLLYLRCRNYSLLIDQPDKCAKKPFLLLAIKSLTPHFARRQAIRESWGQESNAGNQTVVRVFLLGQTPPEDNHPDLSDMLKFESEKHQDILMWNYRDTFFNLSLKEVLFLRWVSTSCPDTEFVFKGDDDVFVNTHHILNYLNSLSKTKAKDLFIGDVIHNAGPHRDKKLKYYIPEVVYSGLYPPYAGGGGFLYSGHLALRLYHITDQVHLYPIDDVYTGMCLQKLGLVPEKHKGFRTFDIEEKNKNNICSYVDLMLVHSRKPQEMIDIWSQLQSAHLKC
# notes: FLAG-tagged ORF overexpressed in A375 cells; pulled down from the lysate with mouse anti-FLAG; also called N-FLAG B3GNT2; N-term FLAG; not shown: N-terminal FLAG tag
# B2: C-terminal FLAG tagged B3GNT2 (enzyme, human, UniProt Q9NY97 1-397, looked up)
# chain: MSVGRRRIKLLGILMMANVFIYFIMEVSKSSSQEKNGKGEVIIPKEKFWKISTPPEAYWNREQEKLNRQYNPILSMLTNQTGEAGRLSNISHLNYCEPDLRVTSVVTGFNNLPDRFKDFLLYLRCRNYSLLIDQPDKCAKKPFLLLAIKSLTPHFARRQAIRESWGQESNAGNQTVVRVFLLGQTPPEDNHPDLSDMLKFESEKHQDILMWNYRDTFFNLSLKEVLFLRWVSTSCPDTEFVFKGDDDVFVNTHHILNYLNSLSKTKAKDLFIGDVIHNAGPHRDKKLKYYIPEVVYSGLYPPYAGGGGFLYSGHLALRLYHITDQVHLYPIDDVYTGMCLQKLGLVPEKHKGFRTFDIEEKNKNNICSYVDLMLVHSRKPQEMIDIWSQLQSAHLKC
# notes: FLAG-tagged ORF overexpressed in A375 cells; pulled down from the lysate with mouse anti-FLAG; also called C-FLAG B3GNT2; C-term flag; not shown: C-terminal FLAG tag
# B3: N-terminal FLAG tagged B3GNT2 (enzyme, human, UniProt Q9NY97 1-397, looked up)
# chain: MSVGRRRIKLLGILMMANVFIYFIMEVSKSSSQEKNGKGEVIIPKEKFWKISTPPEAYWNREQEKLNRQYNPILSMLTNQTGEAGRLSNISHLNYCEPDLRVTSVVTGFNNLPDRFKDFLLYLRCRNYSLLIDQPDKCAKKPFLLLAIKSLTPHFARRQAIRESWGQESNAGNQTVVRVFLLGQTPPEDNHPDLSDMLKFESEKHQDILMWNYRDTFFNLSLKEVLFLRWVSTSCPDTEFVFKGDDDVFVNTHHILNYLNSLSKTKAKDLFIGDVIHNAGPHRDKKLKYYIPEVVYSGLYPPYAGGGGFLYSGHLALRLYHITDQVHLYPIDDVYTGMCLQKLGLVPEKHKGFRTFDIEEKNKNNICSYVDLMLVHSRKPQEMIDIWSQLQSAHLKC
# notes: Overexpressed in cells and pulled down from the lysate with mouse anti-FLAG antibody; also called N-FLAG B3GNT2; N-term FLAG; not shown: N-terminal FLAG tag
# B4: C-terminal FLAG tagged B3GNT2 (enzyme, human, UniProt Q9NY97 1-397, looked up)
# chain: MSVGRRRIKLLGILMMANVFIYFIMEVSKSSSQEKNGKGEVIIPKEKFWKISTPPEAYWNREQEKLNRQYNPILSMLTNQTGEAGRLSNISHLNYCEPDLRVTSVVTGFNNLPDRFKDFLLYLRCRNYSLLIDQPDKCAKKPFLLLAIKSLTPHFARRQAIRESWGQESNAGNQTVVRVFLLGQTPPEDNHPDLSDMLKFESEKHQDILMWNYRDTFFNLSLKEVLFLRWVSTSCPDTEFVFKGDDDVFVNTHHILNYLNSLSKTKAKDLFIGDVIHNAGPHRDKKLKYYIPEVVYSGLYPPYAGGGGFLYSGHLALRLYHITDQVHLYPIDDVYTGMCLQKLGLVPEKHKGFRTFDIEEKNKNNICSYVDLMLVHSRKPQEMIDIWSQLQSAHLKC
# notes: Overexpressed in cells and pulled down from the lysate with mouse anti-FLAG antibody; also called C-FLAG B3GNT2; C-term flag; not shown: C-terminal FLAG tag
# B5: N-terminal FLAG tagged B3GNT2 (enzyme, human, UniProt Q9NY97 1-397, looked up)
# chain: MSVGRRRIKLLGILMMANVFIYFIMEVSKSSSQEKNGKGEVIIPKEKFWKISTPPEAYWNREQEKLNRQYNPILSMLTNQTGEAGRLSNISHLNYCEPDLRVTSVVTGFNNLPDRFKDFLLYLRCRNYSLLIDQPDKCAKKPFLLLAIKSLTPHFARRQAIRESWGQESNAGNQTVVRVFLLGQTPPEDNHPDLSDMLKFESEKHQDILMWNYRDTFFNLSLKEVLFLRWVSTSCPDTEFVFKGDDDVFVNTHHILNYLNSLSKTKAKDLFIGDVIHNAGPHRDKKLKYYIPEVVYSGLYPPYAGGGGFLYSGHLALRLYHITDQVHLYPIDDVYTGMCLQKLGLVPEKHKGFRTFDIEEKNKNNICSYVDLMLVHSRKPQEMIDIWSQLQSAHLKC
# notes: FLAG-tagged ORF overexpressed in A375 cells; bait of the co-IP with mouse anti-FLAG; also called N-FLAG B3GNT2; N-term FLAG; not shown: N-terminal FLAG tag
# B6: C-terminal FLAG tagged B3GNT2 (enzyme, human, UniProt Q9NY97 1-397, looked up)
# chain: MSVGRRRIKLLGILMMANVFIYFIMEVSKSSSQEKNGKGEVIIPKEKFWKISTPPEAYWNREQEKLNRQYNPILSMLTNQTGEAGRLSNISHLNYCEPDLRVTSVVTGFNNLPDRFKDFLLYLRCRNYSLLIDQPDKCAKKPFLLLAIKSLTPHFARRQAIRESWGQESNAGNQTVVRVFLLGQTPPEDNHPDLSDMLKFESEKHQDILMWNYRDTFFNLSLKEVLFLRWVSTSCPDTEFVFKGDDDVFVNTHHILNYLNSLSKTKAKDLFIGDVIHNAGPHRDKKLKYYIPEVVYSGLYPPYAGGGGFLYSGHLALRLYHITDQVHLYPIDDVYTGMCLQKLGLVPEKHKGFRTFDIEEKNKNNICSYVDLMLVHSRKPQEMIDIWSQLQSAHLKC
# notes: FLAG-tagged ORF overexpressed in A375 cells; bait of the co-IP with mouse anti-FLAG; also called C-FLAG B3GNT2; C-term flag; not shown: C-terminal FLAG tag
# B7: C-terminal FLAG tagged B3GNT2 (enzyme, human, UniProt Q9NY97 1-397, looked up)
# chain: MSVGRRRIKLLGILMMANVFIYFIMEVSKSSSQEKNGKGEVIIPKEKFWKISTPPEAYWNREQEKLNRQYNPILSMLTNQTGEAGRLSNISHLNYCEPDLRVTSVVTGFNNLPDRFKDFLLYLRCRNYSLLIDQPDKCAKKPFLLLAIKSLTPHFARRQAIRESWGQESNAGNQTVVRVFLLGQTPPEDNHPDLSDMLKFESEKHQDILMWNYRDTFFNLSLKEVLFLRWVSTSCPDTEFVFKGDDDVFVNTHHILNYLNSLSKTKAKDLFIGDVIHNAGPHRDKKLKYYIPEVVYSGLYPPYAGGGGFLYSGHLALRLYHITDQVHLYPIDDVYTGMCLQKLGLVPEKHKGFRTFDIEEKNKNNICSYVDLMLVHSRKPQEMIDIWSQLQSAHLKC
# notes: Bait of the co-IP; overexpressed from a synthesized ORF and pulled down from cell lysate with mouse anti-FLAG; also called C-FLAG B3GNT2; C-term flag; not shown: FLAG tag at the C-terminus
# Legend:
# P01837.1 [1] = target: T1, P01837.1 (UniProt P01837 1-107); test: co-IP with anti-FLAG, N-FLAG B3GNT2, mass spectrometry
# T1 construct: No name printed; also called NA
# P01837.1 [2] = target: T1, P01837.1; test: co-IP with anti-FLAG, C-FLAG B3GNT2, mass spectrometry
# ACTG1 [3] = target: T2, ACTG1 (human, UniProt P63261 2-375); test: co-IP, anti-FLAG, lysate of cells with N-FLAG B3GNT2; mass spectrometry
# ACTG1 [4] = target: T2, ACTG1; test: co-IP, anti-FLAG, lysate of cells with C-FLAG B3GNT2; mass spectrometry
# ACTA2 [5] = target: T3, ACTA2 (human, UniProt P62736 3-377); test: co-IP with mouse anti-FLAG from lysate of cells overexpressing N-FLAG B3GNT2, then mass spectrometry
# ACTA2 [6] = target: T3, ACTA2; test: co-IP with mouse anti-FLAG from lysate of cells overexpressing C-FLAG B3GNT2, then mass spectrometry
# PSMA1 = target: T4, PSMA1 (UniProt P25786 1-263); test: co-IP, anti-FLAG, lysate of C-FLAG B3GNT2 cells, mass spectrometry
# T4 construct: also called NP_002777.1 (+1)
# ALDOA = target: T5, ALDOA (UniProt P04075-2 1-418, limits assumed); test: as above
# T5 construct: also called NP_001230106.1 (+1)
# T5 sequence (looked up): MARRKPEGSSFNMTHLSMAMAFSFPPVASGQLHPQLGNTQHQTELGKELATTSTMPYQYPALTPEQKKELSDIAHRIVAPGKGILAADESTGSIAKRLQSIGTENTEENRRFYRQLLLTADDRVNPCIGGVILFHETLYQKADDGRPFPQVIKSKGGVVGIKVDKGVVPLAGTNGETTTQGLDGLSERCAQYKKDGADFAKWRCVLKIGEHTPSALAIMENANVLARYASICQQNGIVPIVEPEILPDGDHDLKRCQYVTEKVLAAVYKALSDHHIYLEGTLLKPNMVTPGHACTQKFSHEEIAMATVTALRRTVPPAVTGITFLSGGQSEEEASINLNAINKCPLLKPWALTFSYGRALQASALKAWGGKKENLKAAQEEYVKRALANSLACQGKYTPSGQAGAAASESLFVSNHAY
# SEC16A = target: T6, SEC16A (UniProt O15027-4 1-2332, limits assumed); test: as above
# T6 construct: also called NP_001263347.1 (+15)
# PSMA4 = target: T7, PSMA4 (UniProt P25789 1-261); test: as above
# T7 construct: also called NP_002780.1
# T7 sequence (looked up): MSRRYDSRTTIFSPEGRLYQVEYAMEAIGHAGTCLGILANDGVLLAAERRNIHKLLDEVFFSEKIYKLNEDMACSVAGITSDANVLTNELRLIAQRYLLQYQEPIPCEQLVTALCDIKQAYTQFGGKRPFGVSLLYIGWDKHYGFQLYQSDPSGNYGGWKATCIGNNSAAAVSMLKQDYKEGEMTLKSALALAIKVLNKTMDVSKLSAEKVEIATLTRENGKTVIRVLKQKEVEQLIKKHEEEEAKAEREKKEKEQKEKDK
# HLA-A = target: T8, HLA-A (UniProt P04439 25-365, limits assumed); test: as above
# T8 construct: also called XP_024308303.1
# PRR4 = target: T9, PRR4 (UniProt Q16378 17-134); test: as above
# T9 construct: also called NP_009175.2
# T9 sequence (looked up): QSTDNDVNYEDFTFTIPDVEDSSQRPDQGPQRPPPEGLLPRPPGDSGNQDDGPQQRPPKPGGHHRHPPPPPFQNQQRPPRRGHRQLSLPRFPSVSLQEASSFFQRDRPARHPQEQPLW
# SRSF7 = target: T10, SRSF7 (UniProt Q16629 1-238); test: as above
# T10 construct: also called NP_001026854.1 (+1)
# T10 sequence (looked up): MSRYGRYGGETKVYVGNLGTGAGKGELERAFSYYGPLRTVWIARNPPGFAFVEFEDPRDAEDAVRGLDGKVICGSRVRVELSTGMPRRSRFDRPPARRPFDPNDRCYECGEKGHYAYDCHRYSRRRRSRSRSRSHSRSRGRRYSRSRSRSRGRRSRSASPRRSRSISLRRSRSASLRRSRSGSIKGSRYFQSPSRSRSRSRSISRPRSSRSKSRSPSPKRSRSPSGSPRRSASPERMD
binder,measurement,setting,value
B1,"co-IP/MS count, N-term FLAG",P01837.1 [1],89
B2,"co-IP/MS count, C-term flag",P01837.1 [2],146
B3,co-IP mass spectrometry count,ACTG1 [3],82
B4,co-IP mass spectrometry count,ACTG1 [4],107
B5,co-IP mass spectrometry count (N-term FLAG),ACTA2 [5],64
B6,co-IP mass spectrometry count (C-term flag),ACTA2 [6],81
B7,co-IP/MS count,PSMA1,0
same,co-IP/MS count,ALDOA,0
same,co-IP/MS count,SEC16A,0
same,co-IP/MS count,PSMA4,0
same,co-IP/MS count,HLA-A,4
same,co-IP/MS count,PRR4,0
same,co-IP/MS count,SRSF7,0
